Target: Sodium-dependent serotonin transporter (Rattus norvegicus, UniProt P31652)
Assay: Compound was tested for its ability to inhibit the neurotransmitter serotonin-5-HT reuptake system using [3H]5-HT as radioligand

Chains of the proteins cited; added tags and fusions are not shown.
UniProt P31652, whole entry: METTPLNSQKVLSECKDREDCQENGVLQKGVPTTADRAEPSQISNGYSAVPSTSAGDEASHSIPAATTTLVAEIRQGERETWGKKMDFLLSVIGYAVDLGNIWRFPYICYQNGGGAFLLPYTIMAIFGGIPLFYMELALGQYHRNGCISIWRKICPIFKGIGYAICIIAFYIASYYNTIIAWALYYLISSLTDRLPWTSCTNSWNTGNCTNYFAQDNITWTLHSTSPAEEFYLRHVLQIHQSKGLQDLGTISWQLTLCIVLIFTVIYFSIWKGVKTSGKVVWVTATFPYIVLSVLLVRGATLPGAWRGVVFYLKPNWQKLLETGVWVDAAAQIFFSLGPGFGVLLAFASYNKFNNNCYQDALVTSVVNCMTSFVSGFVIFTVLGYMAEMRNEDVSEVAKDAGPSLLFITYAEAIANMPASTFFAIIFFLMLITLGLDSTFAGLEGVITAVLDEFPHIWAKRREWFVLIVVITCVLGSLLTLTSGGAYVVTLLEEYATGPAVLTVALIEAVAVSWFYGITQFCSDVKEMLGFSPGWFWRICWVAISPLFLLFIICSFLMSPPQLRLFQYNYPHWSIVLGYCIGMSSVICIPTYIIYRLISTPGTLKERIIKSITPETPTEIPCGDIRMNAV

Fc1ccc(C(OCCN2CCN(CCCc3ccccc3)CC2)c2ccc(F)cc2)cc1 [VANOXERINE]
IC50: 70 nM
